{"source": "paper PMC9675978", "about": "(The Journal of steroid biochemistry and molecular biology, 2022)", "settings_in_all_cases": "3.14 mM S-tetralol, 2.28 mM NAD+, pH 7.0, 37 °C", "key": {"AKR1C3 E77G": {"target": "T1, AKR1C3 E77G (Homo sapiens, UniProt P42330, E77G)", "T1 sequence (P42330 1-323 E77G)": "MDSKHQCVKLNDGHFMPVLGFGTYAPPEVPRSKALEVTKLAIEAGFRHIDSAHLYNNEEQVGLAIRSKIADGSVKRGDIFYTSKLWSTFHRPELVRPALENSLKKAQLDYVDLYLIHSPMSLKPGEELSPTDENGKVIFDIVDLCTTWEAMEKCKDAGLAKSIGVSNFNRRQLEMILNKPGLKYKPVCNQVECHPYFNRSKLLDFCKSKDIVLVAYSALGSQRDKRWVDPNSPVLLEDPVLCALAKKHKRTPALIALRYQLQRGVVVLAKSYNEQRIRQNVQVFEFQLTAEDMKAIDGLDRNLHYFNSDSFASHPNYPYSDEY"}, "AKR1C3 H5Q": {"target": "T2, AKR1C3 H5Q (Homo sapiens, UniProt P42330, H5Q)", "T2 sequence (P42330 1-323 H5Q)": "T1 sequence (P42330 1-323 E77G) with H5Q, G77E"}, "AKR1C3 WT": {"target": "T3, AKR1C3 WT (Homo sapiens, UniProt P42330)", "T3 sequence (P42330 1-323)": "T1 sequence (P42330 1-323 E77G) with G77E"}, "AKR1C3 K104D": {"target": "T4, AKR1C3 K104D (Homo sapiens, UniProt P42330, K104D)", "T4 sequence (P42330 1-323 K104D)": "T1 sequence (P42330 1-323 E77G) with G77E, K104D"}}, "note": "Positions count from the first letter of the chain named.", "data": [{"smiles": "O[C@H]1CCCc2ccccc21", "note": "[S-tetralol, (S)-(+)– 1,2,3,4-Tetrahydro-1-naphthol]", "values": [{"measurement": "S-tetralol specific activity", "setting": "AKR1C3 E77G", "value": "3.1 ± 0.24", "unit": "µmol/min/mg"}, {"measurement": "S-tetralol specific activity", "setting": "AKR1C3 H5Q", "value": "3.7 ± 0.31", "unit": "µmol/min/mg"}, {"measurement": "S-tetralol specific activity", "setting": "AKR1C3 WT", "value": "3.8 ± 0.35", "unit": "µmol/min/mg"}, {"measurement": "S-tetralol specific activity", "setting": "AKR1C3 K104D", "value": "2.4 ± 0.22", "unit": "µmol/min/mg"}]}]}
